Relative growth data for 58 compounds are collected here from published antibiotic growth screens (doi:10.1038/s41589-023-01349-8).

Molecules are shown by their SMILES. The list shows a part of the results.

This assay has as its system A. baumannii ATCC 17978. The experiment in a line: relative growth (fraction of control); higher = less inhibition. Particulars: 50 µM.
In the case of `CC(N)CCCC(C)(C)O.Cl` (stereo not drawn), the relative growth is 0.886.
Turning to `CCCCCCc1ccc(O)cc1O.Nc1c2ccccc2nc2ccccc12`, the relative growth worked out at 0.835.
As for `CC(C)C[C@@H]1NC(=O)[C@@H]2C[C@H](C(=O)NCCCC[N+](C)(C)C)[C@H](c3cccc(OCCO)c3)N2C1=O`, the figure is 1.1; as for `Cc1cc2c(cc1S(N)(=O)=O)S(=O)(=O)CCC2`, 1.04; as for `COc1ccc(COC[C@]23NC(=O)N[C@H](c4ccccc4O2)[C@H]3COC(=O)NCCCCCC(=O)NO)cc1`, 1.12.
Consider `C/C=C\C1=C(C(=O)O)N2C(=O)[C@H](NC(=O)[C@@H](N)c3ccc(O)cc3)[C@@H]2SC1`, for which the relative growth worked out at 0.9.
The figure for `O=C(C[C@H]1CC[C@H]2[C@@H](COC[C@@H](O)CN2S(=O)(=O)c2ccc(Cl)cc2)O1)NCCN1CCCCC1` is 0.889; for `O=C(C[C@H]1C=C[C@H](NC(=O)CN2CCOCC2)[C@H](CO)O1)NC1CCCCC1` it is 0.986.
As for `CC(CCC(=O)O)[C@H]1CCC2C3C(=O)C[C@@H]4CC(=O)CC[C@]4(C)C3CC(=O)[C@@]21C` (stereo partly drawn), the figure is 0.967; as for `Brc1ccc(-c2ccc(C3CCCCC3)cn2)cc1`, 1.05.
As for `CC(C)/C=C1\CC/C(=C\c2ccc(C(F)(F)F)cc2)C1=O`, the figure is 0.855.
Turning to `C[C@@H]1CN([C@H](C)CO)S(=O)(=O)c2ccc(C#C[C@@H](C)O)cc2O[C@H]1CN(C)C(=O)c1ccccc1`, the relative growth was 1.07.
The figure for `CN(C)CCC(c1ccccc1)c1ccccn1.O=C(O)/C=C\C(=O)O` (stereo not drawn) is 0.98; for `O=S(=O)([O-])CCCS(=O)(=O)[O-].[Na+].[Na+]` it is 1.07; for `O=C(O)c1csc2c1CCCCC2` it is 0.889.
The figure for `O=C(/C=C(O)/C=C/c1ccc(O)c(O)c1)/C=C/c1ccc(O)c(O)c1` is 0.959.
The figure for `COc1cccc(-c2ccc3c(c2)O[C@@H](CN(C)C(=O)C2CCC2)[C@@H](C)CN([C@H](C)CO)S3(=O)=O)c1` is 0.713; for `COc1cc(OC)c(C(C)=O)c(O)c1C` it is 1.24; for `CN(C)CC(=O)N[C@H]1C=C[C@@H](CC(=O)NCCN2CCCCC2)O[C@H]1CO` it is 0.862.
The compound `O=C(NCCN1CCOCC1)[C@@]1(CCS(=O)(=O)c2ccccc2)N=C(c2ccc(OCCCO)cc2)O[C@H]1c1ccccc1` returned a relative growth of 0.951.
The figure for `Nc1ccccc1C(=O)N[C@H]1CCCCNC1=O` is 1.01; for `COC(=O)[C@@H](C)N(C#N)c1nc(C)cc(C)n1` it is 1.07; for `COc1ccc(S(=O)(=O)N[C@@H]2C=C[C@H](CC(=O)N3CCN(c4ccccc4)CC3)O[C@H]2CO)cc1` it is 0.982.
`C=CC[N+]1([C@H]2CC3C4CCC5C[C@H](O)[C@@H](N6CCOCC6)C[C@]5(C)C4CC[C@]3(C)[C@H]2OC(C)=O)CCCC1.[Br-]` (stereo partly drawn) showed a relative growth of 1.23.
The figure for `O=C(NCC[C@H]1CC[C@H](NS(=O)(=O)c2cccc(F)c2)[C@H](CO)O1)C1CC1` is 1.1.
As for `Cc1cc(O)c(C=O)c2c1C(=O)Oc1c(C)c(O)c3c(c1O2)C(O)OC3=O` (stereo not drawn), the figure is 1.06.
As for `O=C(CN1CCOCC1)N[C@@H]1CC[C@H](CCn2cc(C3CC3)nn2)O[C@H]1CO`, the figure is 1.06.
`Cc1ccc(Oc2nnc(-c3cccs3)c3ccccc23)cc1` displayed a relative growth of 1.05.
On to `COc1ccc(CC[C@@H](OC(=O)[C@H]2CCCCN2C(=O)Cc2ccccc2)c2cccc(OCC(=O)O)c2)cc1OC`, for which the relative growth was 0.902.
The figure for `Nc1nonc1C(=O)N1CCCCC1` is 1.05.
The compound `COc1ccc([Si](C)(C)[C@@H]2[C@@H](CC(=O)N(CCO)Cc3ccccc3)O[C@]3(C(=O)N(C)c4c(Br)cc(C)cc43)[C@H]2C)cc1` came in with a relative growth of 0.718.
For `CN(C)CC(=O)N[C@H]1C=C[C@H](CC(=O)O)O[C@@H]1CO`, the relative growth is 0.929.
For the compound `O=C(C[C@@H]1CC[C@@H]2[C@H](COC[C@@H](O)CN2C(=O)c2ccccc2)O1)NCCCN1CCOCC1`, the relative growth came out at 0.989.
The figure for `CC[C@H]1[C@H](O)C2=C(CC3C(=O)OC(=O)/C3=C/[C@H]1CC)C(=O)OC2=O` (stereo partly drawn) is 0.94; for `C[C@H](O)C#Cc1cnc2c(c1)C(=O)N([C@H](C)CO)C[C@H](C)[C@H](CN(C)C(=O)CN1CCOCC1)O2` it is 1.07; for `CC(C)(C)OC(=O)N1CCNC(=O)C1` it is 0.971.
The figure for `O=c1ccc2ccc(O)cc2o1` is 0.954.
In turn, `O=C(O)CCCCc1ccc(F)cc1` returned a relative growth of 1.03.
For the compound `CN(C)/N=N/c1[nH]cnc1C(N)=O`, the relative growth came to 0.155.
The figure for `O=C(O)c1cccnc1Nc1cccc(C(F)(F)F)c1` is 1.07; for `O=C(/C=C/c1cccc(-c2cn(-c3cccc(C(=O)N4CCC5(CC4)C(=O)NCN5c4ccccc4)c3)nn2)c1)NO` it is 0.833; for `Cc1oncc1C(=O)Nc1ccc(C(F)(F)F)cc1` it is 0.954.
As for `COc1cc(C)nc2nc(S(C)(=O)=O)nn12`, the figure is 1.17.
The figure for `O=C1C[C@@H]2C(=O)NCCN2C(NC(=O)c2ccccc2)=N1` is 1.13.
For `C(=N\Cc1cccnc1)/c1c2ccccc2cc2ccccc12`, the relative growth is 0.932.
As for `Cc1ccc(S(=O)(=O)N2C[C@H](O)COC[C@@H]3O[C@H](CC(=O)NCc4ccc(Cl)c(Cl)c4)CC[C@H]32)cc1`, the figure is 0.766.
Regarding `CN1CCN(C(=O)C[C@@H]2C=C[C@H](NC(=O)c3ccc4c(c3)OCO4)[C@H](CO)O2)CC1`, the relative growth stood at 0.812.
As for `CC1CC(OC(=O)C(O)c2ccccc2)CC(C)(C)C1` (stereo not drawn), the figure is 0.949; as for `COc1ccccc1-c1ccc2c(c1)O[C@H](CN(C)CC1CCOCC1)[C@H](C)CN([C@@H](C)CO)S2(=O)=O`, 0.896; as for `Cc1ccc(C(=O)N2c3ccccc3Sc3ccccc32)cc1`, 1.
The figure for `CCOC(=O)[C@H](CCc1ccccc1)N[C@@H](C)C(=O)N1Cc2ccccc2C[C@H]1C(=O)O` is 1.16; for `O=C(O)c1cccc(O)c1O` it is 0.953.
As for `NCC[C@@H]1CC[C@@H](NC(=O)c2ccccc2F)[C@@H](CO)O1`, the figure is 1.3.
As for `CC(=O)N[C@@H]1[C@@H](Oc2ccc(C(C)=O)cc2)O[C@H](CO)[C@H](O)[C@@H]1O`, the relative growth came out at 1.14.
As for `CCOC(=O)CN1CCN(C=O)CC1`, the figure is 1.03; as for `O=C(NCc1nc2ccccc2[nH]1)C1=C[C@H](c2csc3ccccc23)C[C@H](OCc2ccc(CO)cc2)O1`, 1.07.
As for `O=C(C[C@H]1C=C[C@@H](NS(=O)(=O)c2ccc(F)cc2)[C@H](CO)O1)NCc1ccc(Cl)c(Cl)c1`, the figure is 0.91.
The figure for `COC(=O)CCCCCCC(=O)N/N=C/[C@H](O)[C@@H](O)[C@H](O)[C@H](O)CO[C@H]1O[C@H](CO)[C@H](O)[C@H](O)[C@H]1O` is 1.17.
